Experimental findings from publication PMC9561612 are described below.

Amino acid sequences for entries named in this document (tags omitted). Residues count along the entry.
UniProt P61073, whole entry: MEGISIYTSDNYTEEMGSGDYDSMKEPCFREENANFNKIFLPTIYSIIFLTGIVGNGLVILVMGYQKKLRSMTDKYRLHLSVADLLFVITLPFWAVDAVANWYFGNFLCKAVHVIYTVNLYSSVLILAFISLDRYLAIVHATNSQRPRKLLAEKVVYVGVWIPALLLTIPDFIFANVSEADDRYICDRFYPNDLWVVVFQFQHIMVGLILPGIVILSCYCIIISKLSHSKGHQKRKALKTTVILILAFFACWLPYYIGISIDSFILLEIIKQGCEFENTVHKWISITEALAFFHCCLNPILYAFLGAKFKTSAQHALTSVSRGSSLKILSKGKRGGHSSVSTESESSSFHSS
UniProt P48061, 22-89: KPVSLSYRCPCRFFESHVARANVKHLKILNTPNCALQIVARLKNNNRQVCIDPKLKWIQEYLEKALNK

For the test, the target named is CXCR4 receptor (human (endogenous in MDA-MB-231)) (UniProt P61073).

For “wild-type CXCL12 (CXCL12wt) (from UniProt P48061-2 22-89) (natural protein)”, the cytoplasmic Ca2+ release in MDA-MB-231 cells (Fura-2), EC50 for wild-type CXCL12 is 1 nM.
